Assay results taken from patent US20240116985A1, “STAPLED PEPTIDES AND METHODS THEREOF” (priority 2020, published 2024).

Sequences of proteins named here, by UniProt entry; tags and fusion partners are left off. Residues count along the entry.
UniProt P35222, whole entry: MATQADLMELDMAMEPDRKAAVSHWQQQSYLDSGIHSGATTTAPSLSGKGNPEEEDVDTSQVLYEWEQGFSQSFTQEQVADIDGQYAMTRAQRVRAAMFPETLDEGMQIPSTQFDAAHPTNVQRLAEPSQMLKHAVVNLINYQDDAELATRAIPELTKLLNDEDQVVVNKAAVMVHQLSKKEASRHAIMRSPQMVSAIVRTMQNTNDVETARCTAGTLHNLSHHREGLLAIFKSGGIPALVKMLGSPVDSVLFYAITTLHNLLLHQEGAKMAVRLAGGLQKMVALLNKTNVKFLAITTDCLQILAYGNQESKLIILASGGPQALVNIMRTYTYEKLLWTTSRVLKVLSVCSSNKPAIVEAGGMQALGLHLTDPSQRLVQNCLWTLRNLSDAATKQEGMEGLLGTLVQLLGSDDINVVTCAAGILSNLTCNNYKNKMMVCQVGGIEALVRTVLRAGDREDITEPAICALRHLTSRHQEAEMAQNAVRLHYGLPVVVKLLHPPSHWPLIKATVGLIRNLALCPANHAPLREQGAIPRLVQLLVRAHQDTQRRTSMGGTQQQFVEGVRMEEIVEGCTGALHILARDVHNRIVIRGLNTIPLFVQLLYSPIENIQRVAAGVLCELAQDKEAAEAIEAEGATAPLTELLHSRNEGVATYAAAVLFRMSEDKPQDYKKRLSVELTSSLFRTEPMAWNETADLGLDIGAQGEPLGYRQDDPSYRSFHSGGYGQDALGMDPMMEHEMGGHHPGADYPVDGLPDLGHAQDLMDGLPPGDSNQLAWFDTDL
UniProt P35222, 2-781 limits assumed: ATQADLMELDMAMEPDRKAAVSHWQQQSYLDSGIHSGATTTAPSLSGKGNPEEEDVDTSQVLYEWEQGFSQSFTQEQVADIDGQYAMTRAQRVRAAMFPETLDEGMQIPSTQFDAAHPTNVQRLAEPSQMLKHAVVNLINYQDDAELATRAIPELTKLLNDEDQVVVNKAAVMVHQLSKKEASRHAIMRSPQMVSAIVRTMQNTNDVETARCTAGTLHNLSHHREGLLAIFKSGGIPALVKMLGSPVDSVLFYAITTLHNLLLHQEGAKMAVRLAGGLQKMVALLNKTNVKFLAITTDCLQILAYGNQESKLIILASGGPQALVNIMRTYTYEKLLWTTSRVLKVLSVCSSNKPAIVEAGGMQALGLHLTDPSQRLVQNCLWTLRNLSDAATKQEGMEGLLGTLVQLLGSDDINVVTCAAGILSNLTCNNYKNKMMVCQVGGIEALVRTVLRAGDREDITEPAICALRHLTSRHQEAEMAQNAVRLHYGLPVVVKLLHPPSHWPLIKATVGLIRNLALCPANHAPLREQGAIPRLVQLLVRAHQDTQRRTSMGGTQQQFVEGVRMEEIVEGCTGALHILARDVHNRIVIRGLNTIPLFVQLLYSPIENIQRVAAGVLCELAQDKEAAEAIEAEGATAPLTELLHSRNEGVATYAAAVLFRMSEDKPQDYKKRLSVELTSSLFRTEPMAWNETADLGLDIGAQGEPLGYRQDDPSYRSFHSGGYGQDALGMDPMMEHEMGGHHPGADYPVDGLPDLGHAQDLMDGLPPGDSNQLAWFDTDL

Experiments:
[1] = molecular target: full-length beta-Catenin (Uniprot ID P35222) (Homo sapiens (Human)) (UniProt P35222); assay: fluorescence polarization competition; full-length beta-catenin, 5FAM-TCF4(10-53) probe displaced
[2] = molecular target: full-length beta-Catenin (Uniprot ID P35222) (Homo sapiens (Human)) (UniProt P35222); assay: fluorescence polarization competition; full-length beta-catenin, 5FAM-TCF4(10-53) probe as competitor
[3] = molecular target: full-length beta-Catenin (Uniprot ID P35222) (Homo sapiens (Human)) (UniProt P35222); assay: fluorescence polarization competition; displacement of 5FAM-TCF4(10-53) from full-length beta-catenin

Row | IC50 [2] | IC50 [3] | further results | Substance
1 |  |  | IC50 [1]: 11 nM | Ac-PL3-Asn-Npg-B5-Asp-Asp-Ala-Ala-Phe-Asn-PyrS2-3Thi-BztA-Gln-NH2 (peptide)
2 | 13 nM |  |  | Ac-PL3-Asp-Npg-B5-Asp-3COOHF-Ala-Ala-Phe-Abu-PyrS2-2F3MeF-BztA-[NHEt]GlnR-Ala-NH2 (peptide)
3 | 28 nM |  |  | Ac-PL3-Asp-Npg-B5-Asp-3COOHF-Ala-Ala-Phe-Abu-PyrS2-2F3MeF-BztA-[Pip]GlnR-Ala-NH2 (peptide)
4 |  | 11 nM |  | I-1509: Ac-PL3-Asp-Phe-B5-Asp-Asp-Ala-Ala-Phe-Leu-PyrS2-3Thi-BztA-Gln-NH2 (peptide)
5 |  | 11 nM |  | I-1520: Ac-PL3-Asp-Cha-B5-Asp-Asp-Ala-Ala-Phe-Leu-PyrS2-3Thi-BztA-Hse-NH2 (peptide)
